The text below walks through data of patent US20050203011A1, “Mitigating symptoms and behaviors of substance abuse by modulating GDNF or BDNF pathway activity” (The Regents of the University of California, priority 2003, published 2005).

The conditions of data set [1]: in vivo; cited from earlier work.
For the next data set, the system named is DBA mice. Kind of data set: Conditioned place preference test (CPP). In kind it is in vivo, mouse. Particulars: for locomotor activity: in place preference apparatus. As to the method: The CPP apparatus (Med Associates) consisted of two visually distinctive conditioning compartments connected by a smaller center compartment. The CPP procedure consisted of three phases: preconditioning (Day 1), conditioning (Days 2-9), and post-conditioning (Day 10). On Day 1, mice were placed into the center compartment and allowed free access to both conditioning compartments for 30 minutes. To test whether ibogaine is aversive or rewarding, on Day 2, mice received i.p. injections of either saline or 40 mg/kg ibogaine. Mice were given access to one conditioning chamber for 5 minutes immediately after injection or 3 h after injection. […] This daily alternation occurred until subjects received 4 pairings each of ibogaine and saline with their respective conditioning chambers. Control subjects received saline in both conditioning chambers. To test whether ibogaine alters ethanol-induced CPP, on Day 2, ibogaine (40 mg/kg, i.p.), or saline, was injected 3 hours prior to injection of ethanol (2 g/kg, 20% solution). Ethanol treatment was followed by placement within one conditioning chamber, alternated with saline treatment and placement into the other conditioning chamber, as described above. On Day 10, animals were tested for CPP by allowing free access to both conditioning compartments for 30 minutes. Photocell counts provided a measure of locomotor activity as well as time spent in each compartment

The subject of the next data set is Purkinje cell. As to conditions: 40 mg/kg ibogaine; cited from earlier work.
A further data set has as its system neurons. As to conditions: systemic i.p. ibogaine, 25 μm brain slices; data not shown.

A word on the half-life: it is the time needed for the level to fall by half in the phase considered. Consider 12-methoxyibogamine [ibogaine], for which the half-life in data set [1] is 1 to 2 h. In addition, the “ibogaine-conditioned place preference or aversion” value with DBA mice (40 mg/kg i.p., injected immediately or 3 hours before conditioning) is on record as “No significant ibogaine-conditioned preference or aversion”. For the same substance, the locomotor activity result in the data set on DBA mice (ibogaine alone) and in the data set on DBA mice (ibogaine together with ethanol) was “no change” each time. Also, the Purkinje cell death entry in the data set with Purkinje cell is “not to produce Purkinje cell death”. Moreover, in the data set with neurons, the neuronal cell death result was “no evidence of neuronal cell death”.
